Literature values, collected in patent publication US6251861A, “Treatment of cerebral infarction using cyclic hexapeptides” (Takeda Chemical Industries, Ltd., priority 1996, dated 2001).

Test system: endothelin A receptor / endothelin B receptor / endothelin converting enzyme
Settings: ETA: endothelin A receptor; ETB: endothelin B receptor; ECE: endothelin converting enzyme (inhibition); from the literature cited in the tables; cited from earlier work

Structure (SMILES): COC(=O)C1=C(C)NC(C)=C(C(=O)O)C1c1cccc([N+](=O)[O-])c1 (stereo not shown) [CGS-27830, 1,4-Dihydro-5-methoxycarbonyl-2,6-dimethyl-4-(3-nitrophenyl)-3-pyridine-carboxylic acid]
- Selectivity: ETA/ETB
